System: MC4R vs MC1R
Assay: Selectivity calculation MC4R vs MC1R (division of cAMP EC50 values)
Format: cell-based, human
Settings: Table 5
Experimental: Peptides, including comparator molecules were tested by assays listed below. Selectivity between receptors was assessed in part using cAMP assays, which test the activity of peptides through the Gs pathway.
Selectivity between any two receptors was calculated by a division of the EC50 values between the two receptors, for each individual peptide.

In the case of a-MSH, the “Selectivity: MC4R v MC1R (Larger numbers indicate selectivity towards MC4R)” value is reported as 0.07.

Reference: patent US20250361273A1, “METHODS AND COMPOSITIONS” (priority 2024, published 2025)
